{"sequences": {"note": "The chains behind the UniProt entries cited, without tags or fusion partners.", "UniProt P25929, whole entry": "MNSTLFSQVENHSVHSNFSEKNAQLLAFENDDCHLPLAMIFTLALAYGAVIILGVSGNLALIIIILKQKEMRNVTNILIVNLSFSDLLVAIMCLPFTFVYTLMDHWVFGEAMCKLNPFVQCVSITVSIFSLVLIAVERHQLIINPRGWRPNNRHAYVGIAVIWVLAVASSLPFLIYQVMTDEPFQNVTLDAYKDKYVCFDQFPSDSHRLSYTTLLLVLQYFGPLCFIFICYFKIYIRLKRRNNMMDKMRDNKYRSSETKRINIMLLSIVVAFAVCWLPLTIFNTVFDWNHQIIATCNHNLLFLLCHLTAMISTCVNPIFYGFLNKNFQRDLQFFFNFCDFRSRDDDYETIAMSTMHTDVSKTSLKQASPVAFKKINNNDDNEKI"}, "source": "patent US7223533B2", "about": "“Cell surface proteins and use thereof as indicators of activation of cellular signal transduction pathways” (priority 1999, dated 2007)", "target": "T1, neuropeptide Y receptor (Homo sapiens, UniProt P25929)", "T1 construct": "MFα1(1–89) prepro-α-factor leader (N); expressed in transfected cells; host or cells: S. cerevisiae MATa cells", "assay": "Western blot of DTT-extracted Aga2-HA", "assay_type": "cell-based", "details": "increasing concentrations of ligand vs absence", "description": "The cells (TOD600=1.5) were pelleted, washed with ice-cold 0.15 M sodium chloride, resuspended in 50 microliters of 25 mM Tris-HCl, pH 8.5, supplemented with 10 mM dithiothreitol (DTI) and incubated for1 hour at 4° C. This DTT incubation step reduced the disulfide bonds between the Aga1 and Aga2 proteins, thereby releasing Aga2 into the extracellular medium. After centrifugation, 50 microliter aliquots of the supernatants were subjected to Western blot analysis. Immunoreactive bands corresponding to Aga2-HA were visualized using HA.11 antibodies (BAbCo) as primary antibodies, sheep anti-mouse IgG conjugated with horseradish peroxidase (Amarsham Pharmacia Biotech) as secondary antibodies, and peroxidase substrate (e.g., tetramethyl benzidine (Pierce)) for a visual readout."}
{"substance": "neuropeptide Y", "values": [{"measurement": "expression level of the Aga2 protein", "result": "substantial increase"}]}
